In patent US9193687B2 (priority 2007, dated 2015):
Read-outs that look alike come from different tables or passages of the source.

How the values were obtained:
[1] = system: Human mammary carcinoma (MX-1) tumor cells; assay: In vitro cytotoxicity, SRB assay, 72-hr incubation; settings: read-out: Cytotoxicity IC50, MX-1
[2] = system: CCRF-CEM human lymphoblastic leukemia cells; assay: cells; settings: 72 h, read-out: Cytotoxicity IC50, CCRF-CEM
[3] = system: Human colon carcinoma HCT-116 cells; assay: cells
[4] = system: CCRF-CEM human lymphoblastic leukemia cells; settings: read-out: Cytotoxicity IC50, CCRF-CEM; Table 1; XTT, 72-hr incubation
[5] = HCT-116, read-out: Cytotoxicity IC50, HCT-116

Cc1ccc(Nc2c3ccccc3nc3c(C)cccc23)cc1NC(=O)Nc1ccc(N(CCCl)CCCl)cc1 [BO-1051]
IC50 [1]: 0.24 µM

CCOC(=O)Nc1cc(COC(=O)Oc2ccc(N(CCCl)CCCl)cc2)cc(Nc2c3ccccc3nc3ccccc23)c1 [BO-1065, carbonic acid 3-(acridin-9-yl-amino)-5-ethoxycarbonylaminobenzyl ester 4-[bis(2-chloroethyl)amino]phenyl ester]
IC50 [2]: 0.32 µM

COc1ccc(Nc2c3ccccc3nc3c(C)cccc23)cc1NC(=O)Oc1ccc(N(CCCl)CCCl)cc1 [BO-1213]
IC50 ([3]; HCT-116, 72 h, read-out: Cytotoxicity IC50, HCT-116): 0.24 µM

Cc1cccc2c(Nc3cc(COC(=O)Nc4ccc(N(CCCl)CCCl)cc4)cc(NC(=O)OCC(C)C)c3)c3ccccc3nc12 [BO-1245]
IC50 [4]: 0.75 µM

COc1ccc2nc(C)cc(Nc3cccc(NC(=O)Nc4ccc(N(CCCl)CCCl)cc4)c3)c2c1 [BO-1547]
IC50 [2]: 0.24 µM

O=C(CCN1CCCCC1)Nc1ccc(NC(=O)Nc2ccc(N(CCCl)CCCl)cc2)cc1 [BO-2057]
IC50 [3, 5]: 1.77 µM

O=C(CN1CCCC1)Nc1ccc(NC(=O)Nc2ccc(N(CCCl)CCCl)cc2)cc1 [BO-2093]
IC50 [3, 5]: 1.77 µM
